The list shows a part of the results, in another mix than the full data. Results filed as inconclusive are left out. Active and inactive are the calls of the source. Calls follow the shape of the dose curve; as a rule, active = well fitted inhibition curve with a large enough effect in the polarisation, with a control signal flat (not every such curve was filed as active); inconclusive = small, poorly fitted or top-dose-only effect, or effect the other way, or a change in a side signal; inactive = no such curve, though single readings can be large or run the other way; the % refers to the polarisation.

Protein sequences, listed by entry. Tags and fused reporters are not part of them.
UniProt O00255, whole entry: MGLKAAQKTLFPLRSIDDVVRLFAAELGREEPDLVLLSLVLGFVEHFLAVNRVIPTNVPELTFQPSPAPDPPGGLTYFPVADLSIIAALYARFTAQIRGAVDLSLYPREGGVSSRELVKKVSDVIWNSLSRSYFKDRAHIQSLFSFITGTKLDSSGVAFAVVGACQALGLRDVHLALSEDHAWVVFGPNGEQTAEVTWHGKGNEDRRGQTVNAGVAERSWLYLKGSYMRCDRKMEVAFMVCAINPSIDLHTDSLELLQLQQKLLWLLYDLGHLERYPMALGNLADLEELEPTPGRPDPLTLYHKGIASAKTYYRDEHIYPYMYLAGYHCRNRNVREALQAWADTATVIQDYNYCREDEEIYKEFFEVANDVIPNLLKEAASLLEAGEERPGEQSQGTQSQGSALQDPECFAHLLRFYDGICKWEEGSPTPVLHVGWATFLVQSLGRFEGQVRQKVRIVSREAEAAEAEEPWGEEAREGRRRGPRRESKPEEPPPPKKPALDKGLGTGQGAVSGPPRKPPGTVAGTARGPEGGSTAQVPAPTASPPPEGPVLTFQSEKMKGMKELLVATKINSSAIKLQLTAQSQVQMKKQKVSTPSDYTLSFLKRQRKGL
UniProt Q03164, whole entry partner: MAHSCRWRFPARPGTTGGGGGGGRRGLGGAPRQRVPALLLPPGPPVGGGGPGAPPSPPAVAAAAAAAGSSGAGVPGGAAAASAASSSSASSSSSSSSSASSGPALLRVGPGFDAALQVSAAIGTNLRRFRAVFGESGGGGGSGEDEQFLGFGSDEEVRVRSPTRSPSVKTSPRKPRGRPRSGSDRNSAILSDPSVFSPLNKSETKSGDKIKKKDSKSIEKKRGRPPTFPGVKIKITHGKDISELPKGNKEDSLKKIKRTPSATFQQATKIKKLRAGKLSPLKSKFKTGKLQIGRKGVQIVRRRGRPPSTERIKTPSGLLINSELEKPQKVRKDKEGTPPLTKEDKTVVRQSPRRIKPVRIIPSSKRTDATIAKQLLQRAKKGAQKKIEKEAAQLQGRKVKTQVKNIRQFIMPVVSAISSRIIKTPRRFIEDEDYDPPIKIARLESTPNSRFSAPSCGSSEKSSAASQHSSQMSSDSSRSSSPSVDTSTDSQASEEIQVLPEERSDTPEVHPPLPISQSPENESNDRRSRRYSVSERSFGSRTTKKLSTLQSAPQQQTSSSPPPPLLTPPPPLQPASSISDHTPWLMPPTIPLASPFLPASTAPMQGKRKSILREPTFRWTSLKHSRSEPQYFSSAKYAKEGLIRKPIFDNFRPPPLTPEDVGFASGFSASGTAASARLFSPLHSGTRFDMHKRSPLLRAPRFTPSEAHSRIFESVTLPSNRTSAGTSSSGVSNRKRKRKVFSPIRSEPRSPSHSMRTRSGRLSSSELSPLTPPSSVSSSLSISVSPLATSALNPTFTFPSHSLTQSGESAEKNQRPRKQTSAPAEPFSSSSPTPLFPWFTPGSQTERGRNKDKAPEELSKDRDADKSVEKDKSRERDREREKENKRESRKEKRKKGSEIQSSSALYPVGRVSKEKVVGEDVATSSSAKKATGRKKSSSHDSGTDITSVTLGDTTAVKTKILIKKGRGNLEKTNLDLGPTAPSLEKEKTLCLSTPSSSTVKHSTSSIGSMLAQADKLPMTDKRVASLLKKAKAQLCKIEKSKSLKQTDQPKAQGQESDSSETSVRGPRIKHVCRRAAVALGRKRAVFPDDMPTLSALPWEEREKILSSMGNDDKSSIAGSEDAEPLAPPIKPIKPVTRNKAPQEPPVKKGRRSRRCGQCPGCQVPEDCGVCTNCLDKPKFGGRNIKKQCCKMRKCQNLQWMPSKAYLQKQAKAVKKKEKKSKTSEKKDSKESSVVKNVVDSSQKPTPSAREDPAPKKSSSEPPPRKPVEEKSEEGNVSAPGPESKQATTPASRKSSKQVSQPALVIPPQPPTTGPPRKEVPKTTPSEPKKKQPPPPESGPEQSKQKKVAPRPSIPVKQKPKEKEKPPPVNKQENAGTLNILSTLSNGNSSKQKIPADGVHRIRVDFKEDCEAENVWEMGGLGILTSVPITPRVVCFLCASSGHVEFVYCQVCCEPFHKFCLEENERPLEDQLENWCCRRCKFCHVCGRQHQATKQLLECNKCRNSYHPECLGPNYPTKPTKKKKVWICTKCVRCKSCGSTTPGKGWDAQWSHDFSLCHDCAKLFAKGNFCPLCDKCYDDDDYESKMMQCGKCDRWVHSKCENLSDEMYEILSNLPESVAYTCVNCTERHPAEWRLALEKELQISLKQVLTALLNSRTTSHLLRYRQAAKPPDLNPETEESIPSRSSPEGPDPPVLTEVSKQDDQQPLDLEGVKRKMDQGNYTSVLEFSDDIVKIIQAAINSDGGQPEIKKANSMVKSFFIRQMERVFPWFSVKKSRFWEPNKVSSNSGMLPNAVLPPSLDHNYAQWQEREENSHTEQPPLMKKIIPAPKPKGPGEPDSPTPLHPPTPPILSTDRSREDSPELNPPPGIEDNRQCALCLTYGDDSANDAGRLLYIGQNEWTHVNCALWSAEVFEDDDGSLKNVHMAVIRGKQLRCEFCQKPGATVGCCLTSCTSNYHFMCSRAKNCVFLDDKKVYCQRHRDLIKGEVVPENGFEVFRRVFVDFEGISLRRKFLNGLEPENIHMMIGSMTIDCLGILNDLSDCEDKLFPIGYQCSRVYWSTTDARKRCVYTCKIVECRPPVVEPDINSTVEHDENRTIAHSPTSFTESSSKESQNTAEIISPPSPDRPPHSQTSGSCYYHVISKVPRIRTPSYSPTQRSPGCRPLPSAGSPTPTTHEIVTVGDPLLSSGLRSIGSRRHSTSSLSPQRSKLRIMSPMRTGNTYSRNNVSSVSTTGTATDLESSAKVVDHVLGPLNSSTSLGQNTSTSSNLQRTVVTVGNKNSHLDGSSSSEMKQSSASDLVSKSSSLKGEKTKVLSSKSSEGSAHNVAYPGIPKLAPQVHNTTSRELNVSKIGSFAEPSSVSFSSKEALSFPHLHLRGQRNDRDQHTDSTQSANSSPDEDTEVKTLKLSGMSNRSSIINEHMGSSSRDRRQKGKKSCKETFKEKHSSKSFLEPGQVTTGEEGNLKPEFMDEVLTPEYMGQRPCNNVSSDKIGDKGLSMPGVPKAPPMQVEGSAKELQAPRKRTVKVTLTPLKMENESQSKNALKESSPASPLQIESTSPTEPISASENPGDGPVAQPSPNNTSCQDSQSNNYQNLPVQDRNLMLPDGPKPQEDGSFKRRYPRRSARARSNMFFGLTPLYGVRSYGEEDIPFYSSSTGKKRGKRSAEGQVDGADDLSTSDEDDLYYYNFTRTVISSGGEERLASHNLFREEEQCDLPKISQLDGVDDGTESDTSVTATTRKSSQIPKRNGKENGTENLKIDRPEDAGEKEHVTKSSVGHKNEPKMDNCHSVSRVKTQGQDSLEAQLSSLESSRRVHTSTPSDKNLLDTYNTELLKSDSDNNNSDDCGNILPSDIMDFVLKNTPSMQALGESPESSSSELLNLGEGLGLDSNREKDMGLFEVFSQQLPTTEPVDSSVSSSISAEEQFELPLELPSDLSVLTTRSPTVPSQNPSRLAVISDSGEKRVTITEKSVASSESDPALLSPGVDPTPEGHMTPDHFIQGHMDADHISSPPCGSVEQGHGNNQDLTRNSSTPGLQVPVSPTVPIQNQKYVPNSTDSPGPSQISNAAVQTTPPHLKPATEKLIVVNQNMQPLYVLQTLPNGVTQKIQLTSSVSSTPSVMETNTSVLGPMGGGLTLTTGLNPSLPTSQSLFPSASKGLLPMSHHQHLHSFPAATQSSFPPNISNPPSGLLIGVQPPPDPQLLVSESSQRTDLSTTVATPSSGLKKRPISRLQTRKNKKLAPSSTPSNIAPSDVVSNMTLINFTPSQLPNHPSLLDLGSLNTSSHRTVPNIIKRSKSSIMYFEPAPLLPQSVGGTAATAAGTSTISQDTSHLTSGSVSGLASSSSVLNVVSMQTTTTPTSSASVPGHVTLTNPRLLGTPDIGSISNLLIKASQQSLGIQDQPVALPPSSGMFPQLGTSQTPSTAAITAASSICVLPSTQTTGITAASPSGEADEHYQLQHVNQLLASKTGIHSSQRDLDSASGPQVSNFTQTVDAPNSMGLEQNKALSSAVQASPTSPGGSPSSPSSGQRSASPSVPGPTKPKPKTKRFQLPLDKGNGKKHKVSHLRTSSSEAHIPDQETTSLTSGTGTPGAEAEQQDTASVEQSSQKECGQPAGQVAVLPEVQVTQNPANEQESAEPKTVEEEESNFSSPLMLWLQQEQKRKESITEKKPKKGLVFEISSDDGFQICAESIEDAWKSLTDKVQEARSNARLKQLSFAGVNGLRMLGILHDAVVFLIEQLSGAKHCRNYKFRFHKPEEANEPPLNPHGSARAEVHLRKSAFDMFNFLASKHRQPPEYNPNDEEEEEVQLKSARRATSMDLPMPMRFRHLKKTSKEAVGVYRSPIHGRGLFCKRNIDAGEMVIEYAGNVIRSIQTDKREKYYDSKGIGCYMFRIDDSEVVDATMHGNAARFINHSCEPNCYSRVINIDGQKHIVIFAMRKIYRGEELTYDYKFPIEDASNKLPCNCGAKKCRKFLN

This assay addresses Menin (Homo sapiens) (UniProt O00255). In words: qHTS Assay for Inhibitors Targeting the Menin-MLL Interaction in MLL Related Leukemias: Competition With Texas Red Labeled MLL-derived Mutant Peptide. Also: % of control where 0% means no effect. The settings on record: fluorescence polarization; at 61.6 µM (top of the series) unless noted. (In qHTS, concentration-response curves come from the screen itself.)
For `COc1ccc(NP(C)(=O)Oc2ccccc2OC)cc1` (stereo not drawn), the FP activity change, negative = inhibition was inactive: -4.01%. The value for `CN(C)CCOC(=O)C(O)(c1ccccc1)C1CCCCC1` (stereo not drawn) was inactive: -20.4%; that for `COc1ccc(OP(C)(=O)Nc2cccc(Br)c2)cc1` (stereo not drawn) was inactive: -21.7%. The value for `O=[N+]([O-])c1ccc(OP2(=O)COCCO2)cc1` (stereo not drawn) was inactive: 20.6%. As for `CCOP(C)(=S)SCC(=O)NC(C)(CC)C(=O)O` (stereo not drawn), the figure is inactive: 16.7%. On to `CCN(CCCl)Cc1ccccc1C`, for which the FP activity change, negative = inhibition is inactive: -12.9%. As for `Cc1ccccc1NP(C)(=O)Nc1ccccc1C`, the figure is inactive: 22.8%; as for `CP(=O)(Nc1ccc2c(c1)OCCO2)Oc1ccccc1` (stereo not drawn), inactive: 4.96%; as for `CC(C)c1ccc(OP(C)(=O)Nc2ccc(SC(F)(F)F)cc2)cc1` (stereo not drawn), inactive: -3.37%.

For `CP(=O)(Nc1ccccc1F)Oc1ccccc1` (stereo not drawn), the FP activity change, negative = inhibition is inactive: 1.57%.

Turning to `COc1ccc(OP(C)(=O)Nc2ccc(SC(F)(F)F)cc2)cc1` (stereo not drawn), the FP activity change, negative = inhibition is inactive: -7.57%. As for `CCOC(=O)c1ccc(NP(C)(=O)Oc2ccc(F)cc2)cc1` (stereo not drawn), the figure is inactive: -7.96%. As for `CP(=O)(Nc1ccccc1)Oc1ccc(F)cc1` (stereo not drawn), the figure is inactive: -19.7%; as for `CCN(CC)CCCOC(=O)C(O)(c1ccccc1)C1CCCCC1` (stereo not drawn), inactive: -5.81%; as for `COc1ccc(OP(C)(=O)Nc2ccccc2Br)cc1` (stereo not drawn), inactive: 1.4%. As for `COc1ccccc1OP(C)(=O)Nc1ccc(C)c(C)c1` (stereo not drawn), the figure is inactive: -1.3%; as for `Cc1cc(C)cc(OP(C)(=O)Nc2cccc(C(F)(F)F)c2)c1` (stereo not drawn), inactive: -22%; as for `CP(=O)(OCCOc1ccccc1)OCCOc1ccccc1`, inactive: -6.99%. For the compound `CP(=O)(Nc1ccc(Cl)cc1Cl)Oc1ccccc1` (stereo not drawn), the FP activity change, negative = inhibition is inactive: -10.5%. The value for `CN(C)CCOC(=O)C(O)(c1ccccc1)C1CCCC1` (stereo not drawn) was inactive: 0.027%; that for `COc1ccc(OP(C)(=O)Nc2ccccn2)cc1` (stereo not drawn) was inactive: 1.84%. The value for `CCc1ccc(OP(C)(=O)O)cc1` was inactive: -2.11%. On to `COc1ccccc1OP(C)(=O)Nc1ccc(C)cc1C` (stereo not drawn), for which the FP activity change, negative = inhibition was inactive: -7.73%.

With `CP(=O)(Nc1ccccn1)Oc1ccccc1` (stereo not drawn), the FP activity change, negative = inhibition was inactive: -7.58%.

For the compound `O=[N+]([O-])c1cc([N+](=O)[O-])c(Nc2ccccn2)c([N+](=O)[O-])c1`, the FP activity change, negative = inhibition was inactive: 9.31%. As for `Cc1c(NP(C)(=O)Oc2ccc(C(C)C)cc2)c(=O)n(-c2ccccc2)n1C` (stereo not drawn), the figure is inactive: -29.3%; as for `CCc1ccc(OP(C)(=O)Nc2cccnc2)cc1` (stereo not drawn), inactive: 0.586%.

As for `CP(=O)(Oc1ccccc1)N1CCOC1=O` (stereo not drawn), the FP activity change, negative = inhibition is inactive: 0.474%. The value for `OCCSCCO` was inactive: -2.38%; that for `COc1ccccc1OP(C)(=O)Nc1c(C)n(C)n(-c2ccccc2)c1=O` (stereo not drawn) was inactive: -6.11%. As for `COc1ccc(OP(C)(=O)Nc2ccc(Br)cc2)cc1` (stereo not drawn), the figure is inactive: 1.33%; as for `CCN(CC)CC(O)COC(=O)C(O)(c1ccccc1)C1CCCCC1` (stereo not drawn), inactive: -5.92%. The value for `CN(C)C(=O)c1c([N+](=O)[O-])cc([N+](=O)[O-])cc1[N+](=O)[O-]` was inactive: -18.9%; that for `CP(=O)(Nc1ccc(Cl)cc1)Oc1ccc(F)cc1` (stereo not drawn) was inactive: 2.06%; that for `CC(C)(C)c1ccc(OP(C)(=O)O)cc1` was inactive: -4.14%. In the case of `COc1ccccc1OP(C)(=O)Nc1ccccc1Br` (stereo not drawn), the FP activity change, negative = inhibition was inactive: -2.01%. For `CCOC(=O)c1ccc(NP(C)(=O)Oc2ccc(Cl)cc2)cc1` (stereo not drawn), the FP activity change, negative = inhibition is inactive: -4.09%. The value for `CC(C)OP(=O)(F)OC(C)C` was inactive: 2.01%. The value for `C/C1=C2N=C(/C=C3N=C(/C(C)=C4\[N-][C@@](C)([C@H]5N=C1[C@@](C)(CCC(=O)NC[C@H](C)OP(=O)([O-])O[C@@H]1[C@H](O)[C@H](n6cnc7cc(C)c(C)cc76)O[C@@H]1CO)[C@@H]5CC(N)=O)[C@](C)(CC(N)=O)[C@H]4CCC(N)=O)[C@@](C)(CC(N)=O)[C@@H]\3CCC(N)=O)C(C)(C)[C@@H]/2CCC(N)=O.[C-]#N.[Co+3]` was inactive: -14.9% [at 24.8 µM].

For `COc1ccccc1OP(C)(=O)Nc1ccccc1` (stereo not drawn), the FP activity change, negative = inhibition was inactive: -11.8%.

Turning to `CP(=O)(Nc1ccccc1Br)Oc1ccccc1` (stereo not drawn), the FP activity change, negative = inhibition was inactive: -4.62%. As for `CP(=S)(Nn1cnnc1)Oc1ccccc1` (stereo not drawn), the FP activity change, negative = inhibition is inactive: 18.6%. As for `Cc1cc(C)cc(OP(C)(=O)Nc2ccc(SC(F)(F)F)cc2)c1` (stereo not drawn), the figure is inactive: -0.651%.

`CP(=O)(NC(=O)Nc1ccccc1)Oc1ccccc1` (stereo not drawn): the FP activity change, negative = inhibition is inactive: -5.03%.

As to `CP(=O)(Oc1ccccc1)OC(c1ccccc1)C(F)(F)F` (stereo not drawn), the FP activity change, negative = inhibition was inactive: -24.3%. Turning to `Cc1cccc(C)c1OP(C)(=O)Nc1ccc(SC(F)(F)F)cc1` (stereo not drawn), the FP activity change, negative = inhibition was inactive: 3.06%. As for `CP(=O)(Nc1ccccn1)Oc1ccc(Cl)cc1` (stereo not drawn), the figure is inactive: -10.5%; as for `CCOP(C)(=S)SCC(=O)NC(C)C(=O)O` (stereo not drawn), inactive: 2.51%. The value for `CN(C)CCS` was inactive: -6.97%; that for `CCOC(=O)c1ccc(NP(C)(=O)Oc2ccc(OC)cc2)cc1` (stereo not drawn) was inactive: -18.7%. As for `CCN(CC)CCCOC(=O)C(O)(c1ccccc1)c1ccccc1`, the figure is inactive: 1.87%; as for `O=[N+]([O-])[O-].[NH4+]`, inactive: -6.73%; as for `O=C(O)C(O)(c1ccccc1)c1ccccc1`, inactive: -0.863%. Regarding `Cc1cccc(C)c1OP(C)(N)=O` (stereo not drawn), the FP activity change, negative = inhibition is inactive: -25.6%. Take `CC(C)(C)c1ccc(OP(C)(=O)Nc2ccc(SC(F)(F)F)cc2)cc1` (stereo not drawn): the FP activity change, negative = inhibition is inactive: 10.1%. As for `O=C(O)C1(O)c2ccccc2-c2ccccc21`, the FP activity change, negative = inhibition is inactive: -4.72%.

On to `COc1ccc(OP(C)(=O)Nc2cccc(F)c2)cc1` (stereo not drawn), for which the FP activity change, negative = inhibition was inactive: -0.305%. Take `COc1ccccc1OP(C)(=O)Nc1cc(Cl)ccc1C` (stereo not drawn): the FP activity change, negative = inhibition is inactive: -11.3%. `Cc1cc(C)cc(OP(C)(N)=O)c1` (stereo not drawn): the FP activity change, negative = inhibition was inactive: 7.25%. As for `CCOC(=O)c1ccc(NP(C)(=O)Oc2ccccc2)cc1` (stereo not drawn), the figure is inactive: 3.4%; as for `Cc1ccc(NP(C)(=O)Oc2ccccc2)c(C)c1` (stereo not drawn), inactive: -3.14%. As for `COc1ccccc1OP(C)(=O)Nc1ccc(C)cc1` (stereo not drawn), the figure is inactive: -13.9%; as for `O=[N+]([O-])c1cccc([N+](=O)[O-])c1`, inactive: 4.4%; as for `O=[N+]([O-])OCC(CO[N+](=O)[O-])(CO[N+](=O)[O-])CO[N+](=O)[O-]`, inactive: -23.5%. As for `CC1=NCCc2c1[nH]c1ccccc21.O=[N+]([O-])c1cc([N+](=O)[O-])c(O)c([N+](=O)[O-])c1`, the FP activity change, negative = inhibition is inactive: -3.52%. In the case of `CCOC(=O)c1ccc(NP(C)(=O)Oc2cc(C)cc(C)c2)cc1` (stereo not drawn), the FP activity change, negative = inhibition is inactive: -13.5%. As for `CP(=O)(Nc1cccc(Br)c1)Oc1ccccc1` (stereo not drawn), the figure is inactive: -1.97%. As for `Cc1cc(C)cc(OP(C)(=O)Nc2ccccn2)c1` (stereo not drawn), the figure is inactive: -1.13%. The value for `Cc1ccc(C)c(NP(C)(=O)Oc2ccccc2)c1` (stereo not drawn) was inactive: -15.7%; that for `Cc1nc2ccc3ccccc3c2s1.O=[N+]([O-])c1cc([N+](=O)[O-])c(O)c([N+](=O)[O-])c1` was inactive: 17%; that for `CP(=O)(Nc1ccc(SC(F)(F)F)cc1)Oc1ccccc1` (stereo not drawn) was inactive: 4.87%. For the compound `CN1CCCCC1COC(=O)C1(O)c2ccccc2CCc2ccccc21` (stereo not drawn), the FP activity change, negative = inhibition was inactive: -9.91%.

For `COc1ccccc1OP(C)(=O)Nc1c(C)cccc1C` (stereo not drawn), the FP activity change, negative = inhibition is inactive: -7.68%.

For the origin of these results see PubChem BioAssay AID1768 (National Center for Advancing Translational Sciences (NCATS), 2009).
